Results on 2 substances are retold here after patent publication US20250381254A1, “Augmented Acid Alpha-Glucosidase For The Treatment Of Pompe Disease” (Amicus Therapeutics, Inc., priority 2015, published 2025).

Chains of the proteins cited; added tags and fusions are not shown. Residues count along the entry.
UniProt P11717, 41-2491, species assumed: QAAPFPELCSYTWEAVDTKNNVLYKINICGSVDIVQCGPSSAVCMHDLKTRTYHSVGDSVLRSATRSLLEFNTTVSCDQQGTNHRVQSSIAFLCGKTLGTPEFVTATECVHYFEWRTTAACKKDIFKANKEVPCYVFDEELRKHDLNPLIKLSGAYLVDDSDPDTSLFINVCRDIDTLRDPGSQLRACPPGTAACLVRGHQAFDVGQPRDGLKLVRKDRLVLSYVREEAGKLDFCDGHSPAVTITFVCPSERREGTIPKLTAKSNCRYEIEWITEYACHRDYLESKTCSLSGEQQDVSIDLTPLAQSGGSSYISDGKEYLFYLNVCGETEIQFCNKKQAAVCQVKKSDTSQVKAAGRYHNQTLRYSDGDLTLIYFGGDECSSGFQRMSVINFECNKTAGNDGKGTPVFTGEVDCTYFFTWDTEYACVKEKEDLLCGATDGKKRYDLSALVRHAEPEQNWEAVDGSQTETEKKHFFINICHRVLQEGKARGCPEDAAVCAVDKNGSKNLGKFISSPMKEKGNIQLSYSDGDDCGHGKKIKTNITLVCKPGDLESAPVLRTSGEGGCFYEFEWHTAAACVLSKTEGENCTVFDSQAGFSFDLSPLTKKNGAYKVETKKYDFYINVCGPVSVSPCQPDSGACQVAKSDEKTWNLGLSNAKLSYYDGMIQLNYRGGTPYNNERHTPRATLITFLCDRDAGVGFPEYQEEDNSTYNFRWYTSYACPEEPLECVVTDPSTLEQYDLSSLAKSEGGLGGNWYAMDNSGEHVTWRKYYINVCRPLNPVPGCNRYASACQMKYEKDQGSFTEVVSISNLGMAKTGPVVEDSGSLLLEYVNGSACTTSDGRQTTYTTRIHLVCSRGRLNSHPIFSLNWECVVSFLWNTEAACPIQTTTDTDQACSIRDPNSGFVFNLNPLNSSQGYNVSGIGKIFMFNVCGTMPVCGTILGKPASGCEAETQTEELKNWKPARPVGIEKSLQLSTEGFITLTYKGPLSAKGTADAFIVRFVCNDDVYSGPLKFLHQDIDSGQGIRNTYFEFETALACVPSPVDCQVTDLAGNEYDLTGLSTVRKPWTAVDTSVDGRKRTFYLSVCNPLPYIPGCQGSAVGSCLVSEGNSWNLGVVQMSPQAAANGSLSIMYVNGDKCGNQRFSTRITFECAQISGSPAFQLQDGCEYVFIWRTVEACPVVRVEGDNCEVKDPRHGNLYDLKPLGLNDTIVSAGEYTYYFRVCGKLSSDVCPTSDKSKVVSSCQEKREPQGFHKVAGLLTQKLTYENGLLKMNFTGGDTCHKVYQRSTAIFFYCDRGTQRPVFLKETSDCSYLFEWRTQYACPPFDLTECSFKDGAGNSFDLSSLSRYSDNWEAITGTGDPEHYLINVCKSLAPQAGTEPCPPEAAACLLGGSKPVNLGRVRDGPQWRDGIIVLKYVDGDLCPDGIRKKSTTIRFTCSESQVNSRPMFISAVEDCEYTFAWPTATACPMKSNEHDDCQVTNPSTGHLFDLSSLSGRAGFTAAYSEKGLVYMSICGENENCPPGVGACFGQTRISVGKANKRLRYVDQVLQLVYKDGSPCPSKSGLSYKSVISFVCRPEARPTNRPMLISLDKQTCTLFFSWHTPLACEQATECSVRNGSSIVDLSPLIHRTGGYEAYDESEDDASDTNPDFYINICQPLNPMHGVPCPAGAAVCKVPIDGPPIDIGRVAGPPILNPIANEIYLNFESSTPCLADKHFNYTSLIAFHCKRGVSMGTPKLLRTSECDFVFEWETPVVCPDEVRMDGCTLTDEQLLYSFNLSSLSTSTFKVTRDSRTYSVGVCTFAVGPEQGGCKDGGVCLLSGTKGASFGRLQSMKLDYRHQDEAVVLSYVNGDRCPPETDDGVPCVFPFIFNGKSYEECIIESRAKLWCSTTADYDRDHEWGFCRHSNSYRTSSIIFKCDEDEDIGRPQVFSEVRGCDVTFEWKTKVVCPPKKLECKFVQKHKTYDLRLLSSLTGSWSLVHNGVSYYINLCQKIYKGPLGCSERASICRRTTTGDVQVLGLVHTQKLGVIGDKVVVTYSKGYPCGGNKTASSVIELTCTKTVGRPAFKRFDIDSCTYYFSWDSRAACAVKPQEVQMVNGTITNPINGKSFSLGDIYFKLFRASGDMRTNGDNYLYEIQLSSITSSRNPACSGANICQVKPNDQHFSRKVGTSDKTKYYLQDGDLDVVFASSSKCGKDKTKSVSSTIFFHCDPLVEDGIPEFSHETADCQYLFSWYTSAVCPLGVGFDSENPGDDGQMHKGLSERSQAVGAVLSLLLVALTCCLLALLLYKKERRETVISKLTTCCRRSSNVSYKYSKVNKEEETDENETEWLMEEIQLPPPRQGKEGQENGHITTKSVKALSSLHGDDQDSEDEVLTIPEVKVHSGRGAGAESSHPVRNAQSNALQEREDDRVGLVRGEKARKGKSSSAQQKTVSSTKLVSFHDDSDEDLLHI

One may read the Kd as a measure of binding affinity in units of concentration. High values mean lower affinity, low ones higher affinity.

The assay concerns the target CIMPR (Homo sapiens, UniProt P11717). Kind of assay: CIMPR plate binding assay. Particulars: ATB200 batches. As to the method: In addition to having a greater percentage of rhGAA that can bind to the CIMPR, it is important to understand the quality of that interaction. Lumizyme® and ATB200 rhGAA receptor binding was determined using a CIMPR plate binding assay. Briefly, CIMPR-coated plates were used to capture GAA. Varying concentrations of rhGAA were applied to the immobilized receptor and unbound rhGAA was washed off. The amount of remaining rhGAA was determined by GAA activity.

For “Batch A: batch of ATB200 with sialic acid 4.0 mol/mol protein and M6P content 3.3 mol/mol protein”, binding was put at a Kd of 2.7 nM.
With “Batch B: batch of ATB200 with sialic acid 5.4 mol/mol protein and M6P content 2.9 mol/mol protein”, the affinity, expressed as Kd, was 2.9 nM.
